Where a name gives a salt, the structure may show the parent alone.
How the values were obtained:
[1] = target: BIR2 domain of XIAP (Homo sapiens (Human), UniProt P98170, C202A/C213G); experiment: TR-FRET assay for BIR2 (inhibition of binding of XIAP BIR2 domain to Peptide A); conditions: 6x His-tagged BIR2 domain (aa 124-240 of XIAP), 20 nM Peptide A
Description: (§1) TR-FRET Assay for BIR2 and BIR3
(§2) The peptides were labeled with the fluorescent tags FITC or TAMRA and Kd values were determined by fluorescence polarization assay. […] The peptide sequence was derivatized with biotin to provide […]-(ε-biotin)-OH 1:2 TFA as the substrate for the TR-FRET assay.
The XIAP protein sequence was obtained from the SWISS-PROT protein sequence database and the BIR2 and BIR3 domains were derived from that. The sequence of the BIR2 domain used for the TR-FRET assay is
(§3) Time-resolved fluorescence resonance energy transfer (TR-FRET) signals were measured 1 hour later at room temperature. Test compound potency was assessed at 10 serially diluted concentrations. Percentage of inhibition at each concentration was determined to generate an IC50 value for each test compound.

Protein sequences, listed by entry. Tags and fused reporters are not part of them. Chains listed by the source or under a name are the forms on record and can include a tag or linker.
UniProt P98170, other isoform, or with tags, fused parts or gaps, stated change not applied: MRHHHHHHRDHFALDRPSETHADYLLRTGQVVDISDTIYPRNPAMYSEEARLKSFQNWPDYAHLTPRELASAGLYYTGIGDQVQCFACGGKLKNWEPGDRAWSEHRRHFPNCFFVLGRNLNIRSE
UniProt P98170, other isoform, or with tags, fused parts or gaps: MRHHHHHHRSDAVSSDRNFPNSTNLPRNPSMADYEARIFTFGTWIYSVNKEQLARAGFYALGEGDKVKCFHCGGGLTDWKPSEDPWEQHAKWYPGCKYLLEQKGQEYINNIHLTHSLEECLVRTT

[2] = target: BIR3 domain of XIAP (Homo sapiens (Human), UniProt P98170); experiment: TR-FRET assay for BIR3 (inhibition of binding of XIAP BIR3 domain to Peptide A); conditions: 6x His-tagged BIR3 domain (aa 241-356 of XIAP), 20 nM Peptide A
Description: as §1, §2
The sequence of the BIR3 domain used for the TR-FRET assay is
as §3

SMILES | IC50 [1] | IC50 [2]
CN[C@@H](C)C(=O)N[C@H](C(=O)N1Cc2ccccc2[C@H]1C(=O)Nc1c(F)cccc1F)C1CCOCC1 [Example 12, (S)-N-(2,6-difluorophenyl)-2-((S)-2-((S)-2-(methylamino)propanamido)-2-(tetrahydro-2H-pyran-4-yl)acetyl)isoindoline-1-carboxamide hydrochloride] | 14 nM | –
CN[C@@H](C)C(=O)N[C@H](C(=O)N1CCc2cc(F)ccc2[C@@H]1C(=O)Nc1c(F)cccc1F)C(C)C [Example 43, N-(2,6-difluorophenyl)-6-fluoro-2-((S)-3-methyl-2-((S)-2-(methylamino)propanamido)butanoyl)-1,2,3,4-tetrahydroisoquinoline-1-carboxamide] | 3480 nM | > 54800 nM
CN[C@@H](C)C(=O)N[C@H](C(=O)N1CCc2ccccc2[C@H]1C(=O)Nc1c(F)cccc1F)C(C)(C)C [Example 38, (S)-N-(2,6-difluorophenyl)-2-((S)-3,3-dimethyl-2-((S)-2-(methylamino)propanamido)butanoyl)-1,2,3,4-tetrahydroisoquinoline-1-carboxamide hydrochloride] | 62 nM | > 54800 nM
CN[C@@H](C)C(=O)N[C@H](C(=O)N1Cc2ccccc2[C@H]1C(=O)Nc1c(F)cccc1F)c1ccccc1 [Example 34, (S)-N-(2,6-difluorophenyl)-2-((S)-2-((S)-2-(methylamino)propanamido)-2-phenylacetyl)isoindoline-1-carboxamide hydrochloride] | 32 nM | –
CN[C@@H](C)C(=O)N[C@H](C(=O)N1CCc2ccccc2[C@H]1C(=O)Nc1c(F)cccc1F)[C@@H](C)OC [Example 39, (S)-N-(2,6-difluorophenyl)-2-((2S,3R)-3-methoxy-2-((S)-2-(methylamino)propanamido)butanoyl)-1,2,3,4-tetrahydroisoquinoline-1-carboxamide hydrochloride] | 93 nM | > 54800 nM
CN[C@@H](C)C(=O)N[C@H](C(=O)N1Cc2ccccc2C1C(=O)Nc1ccccc1)C(C)C (stereo partly drawn) [Example 16, 2-((S)-3-methyl-2-((S)-2-(methylamino)propanamido)butanoyl)-N-phenylisoindoline-1-carboxamide hydrochloride] | 233 nM | > 54800 nM
CN[C@@H](C)C(=O)N[C@H](C(=O)N1Cc2ccccc2[C@H]1C(=O)Nc1c(C)cccc1F)C(C)C [Example 47, (S)-N-(2-fluoro-6-methylphenyl)-2-((S)-3-methyl-2-((S)-2-(methylamino)propanamido)butanoyl)isoindoline-1-carboxamide hydrochloride] | 19 nM | > 54800 nM
CN[C@@H](C)C(=O)N[C@H](C(=O)N1CCc2cc(F)ccc2[C@H]1C(=O)Nc1c(F)cccc1F)C(C)C [Example 6, 6-Fluoro-2-[(S)-3-methyl-2-((S)-2-methylamino-propionylamino)-butyryl]-1,2,3,4-tetrahydro-isoquinoline-1-carboxylic acid (2,6-difluoro-phenyl)-amide] | 25 nM | > 54800 nM
CC[C@H](C)[C@H](NC(=O)[C@H](C)NC)C(=O)N1CCc2ccccc2[C@H]1C(=O)Nc1c(F)cccc1F [Example 15, (S)-N-(2,6-difluorophenyl)-2-((2S,3S)-3-methyl-2-((S)-2-(methylamino)propanamido)pentanoyl)-1,2,3,4-tetrahydroisoquinoline-1-carboxamide hydrochloride] | 13 nM | > 54800 nM
